Measurements published in IntAct's records for PubMed 9768844.

B1: Glutamate receptor 2 (Rattus norvegicus (Rat)), P19491 (parent)
chain: MQKIMHISVLLSPVLWGLIFGVSSNSIQIGGLFPRGADQEYSAFRVGMVQFSTSEFRLTPHIDNLEVANSFAVTNAFCSQFSRGVYAIFGFYDKKSVNTITSFCGTLHVSFITPSFPTDGTHPFVIQMRPDLKGALLSLIEYYQWDKFAYLYDSDRGLSTLQAVLDSAAEKKWQVTAINVGNINNDKKDETYRSLFQDLELKKERRVILDCERDKVNDIVDQVITIGKHVKGYHYIIANLGFTDGDLLKIQFGGANVSGFQIVDYDDSLVSKFIERWSTLEEKEYPGAHTATIKYTSALTYDAVQVMTEAFRNLRKQRIEISRRGNAGDCLANPAVPWGQGVEIERALKQVQVEGLSGNIKFDQNGKRINYTINIMELKTNGPRKIGYWSEVDKMVVTLTELPSGNDTSGLENKTVVVTTILESPYVMMKKNHEMLEGNERYEGYCVDLAAEIAKHCGFKYKLTIVGDGKYGARDADTKIWNGMVGELVYGKADIAIAPLTITLVREEVIDFSKPFMSLGISIMIKKPQKSKPGVFSFLDPLAYEIWMCIVFAYIGVSVVLFLVSRFSPYEWHTEEFEDGRETQSSESTNEFGIFNSLWFSLGAFMQQGCDISPRSLSGRIVGGVWWFFTLIIISSYTANLAAFLTVERMVSPIESAEDLSKQTEIAYGTLDSGSTKEFFRRSKIAVFDKMWTYMRSAEPSVFVRTTAEGVARVRKSKGKYAYLLESTMNEYIEQRKPCDTMKVGGNLDSKGYGIATPKGSSLGNAVNLAVLKLNEQGLLDKLKNKWWYDKGECGSGGGDSKEKTSALSLSNVAGVFYILVGGLGLAMLVALIEFCYKSRAEAKRMKVAKNPQNINPSSSQNSQNFATYKEGYNVYGIESVKI

Variants of: B1
Settings: with q9wtw1-3 Grip2, Q9WTW1-3

| effect of a mutation on the interaction | Variant |
| --- | --- |
| disrupting interaction | I883A |
| disrupting interaction | V881A |
